# Binding of CDR-mutated scFvs to a peptide of the spike HR2 region

The target is the same throughout: PDVDLGDISGINAS, from the HR2 region of SARS-CoV-2 spike.

Each scFv is VH, a 15-residue (Gly4Ser)3 linker, VL, as in the parent Ab-95, and differs from it in the CDRs of the light chain only.
VH: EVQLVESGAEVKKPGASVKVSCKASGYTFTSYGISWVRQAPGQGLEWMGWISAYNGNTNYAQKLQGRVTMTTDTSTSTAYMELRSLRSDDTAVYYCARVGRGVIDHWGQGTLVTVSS
VL: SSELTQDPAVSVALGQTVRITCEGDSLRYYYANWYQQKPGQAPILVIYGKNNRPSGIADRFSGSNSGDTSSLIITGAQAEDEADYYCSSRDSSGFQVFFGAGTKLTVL

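Phage display of a naive human antibody library on the peptide gave the parent. Variants in AAYL52 differ from the parent at up to three CDR positions; double and triple changes were sampled at random. AlphaSeq pools MATa yeast showing the antibodies with MATalpha yeast showing the peptide. Mating (16 h, 30 °C) was followed by selection of diploids and sequencing of their barcodes. Scores were corrected for input abundance and mapped to Kd with protein pairs of known affinity run in the same pool. The assay was run in three technical replicates.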

Variants are written as CDR1, CDR2 and CDR3 of the light chain (limits as in the source). Parent: EGDSLRYYYAN, GKNNRPS, SSRDSSGFQVF.
Affinities are written as log10 Kd with Kd in nM; a lower number is a better binder.
Replicates are averaged; those with no signal do not enter the mean.
"ND" marks a missing value. The strain was present, yet no cells mated with the target were sequenced in that replicate, which points to weak or no binding.
Parent in this assay: reference entry 2.31, copy in this library 2.25.

CDR-L1 | CDR-L2 | CDR-L3 | log10 Kd (nM) by replicate | mean, log10 nM | control signals
EGDSLRYYYAN | GKNNRPS | SSRFSMGKQVF | ND / 2.20 / 2.68 | 2.44 | 0/9
DGDSLRGYYAN | GNNNRPS | SSRDSSGFQVF | 1.20 / 1.21 / 0.77 | 1.06 | 4/9 (4.76)
EGDSLRYYYAN | GKNNRPS | SCRVSSGFQQF | 2.47 / 1.84 / 1.54 | 1.95 | 5/9 (4.02)
EVSSLRYYYRN | GKNNRPS | SSRDSSGFQVF | ND / ND / ND | ND | 1/9 (4.86)
MGDSDRYYYAN | GKNNRPS | SSRDSSGFQPF | ND / ND / ND | ND | 2/9 (4.60)
EGESLRYYYAN | GKNHLPS | SSRDSSGFQVF | 2.78 / 3.64 / 4.40 | 3.60 | 3/9 (4.04)
EGDSLQYYYAN | GFNNRPS | SSRDSRGFQVF | 3.79 / ND / 3.13 | 3.46 | 2/9 (3.80)
EFDSLRYYYAN | GQNGRPS | SSRDSSGFQVF | 3.73 / 4.19 / ND | 3.96 | 3/9 (3.49)
ETDSLRYYYAN | GKNNRPS | CSRDWSGFQVF | 4.14 / 3.06 / 3.86 | 3.69 | 2/9 (3.30)
EGDQQRYYYAN | GKNNRPS | ESRDSSGFQVF | 3.39 / 2.87 / 1.92 | 2.73 | 0/9
EGDSLRYYYAN | GKNNRPS | KELDSSGFQVF | 2.80 / 2.20 / 2.83 | 2.61 | 0/9
EGDSLRCYYAN | GKNNRES | HSRDSSGFQVF | ND / ND / ND | ND | 2/9 (3.28)
EGDSLRYYYAN | GSNNRPQ | RSRDSSGFQVF | 4.52 / 3.22 / 3.51 | 3.75 | 2/9 (4.27)
EGDSLRYYYAD | GKNNRPS | SSRSSSGFQVQ | ND / 3.66 / ND | 3.66 | 1/9 (3.51)
EGDSLRYYKAD | GKNNRPM | SSRDSSGFQVF | 2.38 / 2.21 / 1.54 | 2.04 | 4/9 (3.56)
EGDSLRYYKAN | GKNGRPS | SSDDSSGFQVF | ND / 4.12 / 4.10 | 4.11 | 1/9 (2.96)
EGDSLLYYGAN | GKNNRPS | MSRDSSGFQVF | 1.32 / 1.39 / 0.90 | 1.20 | 3/9 (3.95)
EFDSLRYYYAN | GKNNRPS | SSRDGSGFQVF | ND / ND / ND | ND | 1/9 (3.47)
EQDSLRYRYAN | GKNNRPS | SSRCSSGFQVF | 4.17 / ND / ND | 4.17 | 2/9 (4.03)
EGDVLRFYYAN | GKNNRPS | SSRDSSGFQVE | 4.14 / 3.24 / ND | 3.69 | 1/9 (2.73)
EGDSARVYYAN | GKNNRPS | SSEDSSGFQVF | ND / ND / ND | ND | 3/9 (4.29)
EGDLLRYYNAN | GKYNRPS | SSRDSSGFQVF | 4.41 / 2.87 / ND | 3.64 | 5/9 (4.12)
EGDSLRYYVAN | SKNNRPS | SSRDSYGFQVF | ND / ND / ND | ND | 3/9 (4.03)
CKDSLRYYYAN | GKNNRPS | NSRDSSGFQVF | ND / ND / 2.27 | 2.27 | 1/9 (4.06)
EGDSLRYYRAN | GKNNRPS | SSRDSSGFMVF | 3.02 / 2.78 / 2.80 | 2.87 | 5/9 (4.15)
EGDSLRYYYAN | GKINRPS | SSHDSSGFQVT | ND / ND / ND | ND | 1/9 (3.98)
EWDSLRMYYAN | GKNNRPS | SSRDSSGFNVF | 5.31 / ND / 3.46 | 4.39 | 3/9 (4.28)
EGDSLRYYYAF | GKQNRPY | SSRDSSGFQVF | 4.28 / 4.57 / ND | 4.43 | 4/9 (3.80)
EGDSLRPYYAN | GDNNRPS | SSIDSSGFQVF | ND / ND / ND | ND | 4/9 (3.96)
EGDSLRYYYAN | GKNNHPP | SSEDSSGFQVF | 2.63 / 3.01 / 3.81 | 3.15 | 0/9
EGDSLRYYYAN | GKNNRMS | SSFDSSQFQVF | 3.66 / 2.32 / 3.13 | 3.04 | 3/9 (4.21)
EGDFLRYYYAN | GKNKRPS | SSRESSGFQVF | ND / 4.07 / 4.19 | 4.13 | 1/9 (3.46)
EGDSLRYNYTN | GKNNRPS | HSRDSSGFQVF | ND / ND / ND | ND | 1/9 (3.88)
EGDLLRYGYAN | GKNNRPS | SSRDSSGFQVC | 3.17 / 2.81 / 2.69 | 2.89 | 3/9 (4.24)
QGDSLWYYYAN | GKNNRPS | SSRCSSGFQVF | 4.22 / 2.88 / 3.09 | 3.40 | 1/9 (4.49)
EGDTLEYYYAN | GKNNRPS | SSRDSSGFVVF | 3.52 / 3.75 / 4.25 | 3.84 | 2/9 (4.19)
EVDSLRMYYAN | GKNNRPS | SSRDSSGFEVF | 3.38 / 3.52 / 3.02 | 3.31 | 4/9 (3.86)
EGDSLRYYYAN | DCNNRPS | SSRDMSGFQVF | ND / ND / ND | ND | 0/9
EIDSLRYYYAN | GKNNRPE | SSRDSSGFQPF | 4.82 / 3.44 / 3.99 | 4.08 | 3/9 (3.48)
EGDSLWYYTAN | GKNNRPS | SSRDSSGFQVF | 2.57 / 2.59 / 1.85 | 2.34 | 5/9 (4.33)
ENDSIRYYYAN | GKNNRPS | SSRDSSGFQVT | 3.56 / 3.92 / ND | 3.74 | 1/9 (3.18)
EGDSTQYYYAN | GNNNRPS | SSRDSSGFQVF | 2.54 / 2.74 / 2.09 | 2.45 | 4/9 (4.06)

The opening 5 entries, copied out:

CDR-L1	CDR-L2	CDR-L3	log10 Kd (nM) by replicate	mean, log10 nM	control signals
EGDSLRYYYAN	GKNNRPS	SSRFSMGKQVF	ND / 2.20 / 2.68	2.44	0/9
DGDSLRGYYAN	GNNNRPS	SSRDSSGFQVF	1.20 / 1.21 / 0.77	1.06	4/9 (4.76)
EGDSLRYYYAN	GKNNRPS	SCRVSSGFQQF	2.47 / 1.84 / 1.54	1.95	5/9 (4.02)
EVSSLRYYYRN	GKNNRPS	SSRDSSGFQVF	ND / ND / ND	ND	1/9 (4.86)
MGDSDRYYYAN	GKNNRPS	SSRDSSGFQPF	ND / ND / ND	ND	2/9 (4.60)

Background: pairings of library AAYL52 with three empty control strains gave a value in 28% of cases (median 3.91, 5th percentile 2.90). Values in that range, when seen in few replicates, are hard to tell from nonspecific mating. The control count says in how many pairings with the empty strains this scFv gave a signal, with their mean in brackets.

Reference: Engelhart et al. 2022, doi:10.1038/s41597-022-01779-4. File: FLAb, binding data.